Data taken from ChEMBL document CHEMBL1134416, “Statistical molecular design, parallel synthesis, and biological evaluation of a library of thrombin inhibitors” (J Med Chem, 2001).

Legend:
[1] = molecular target: T1, Prothrombin (Homo sapiens, UniProt P00734); assay: (§1) Inhibitory activity against thrombin
Outline: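 Human α-thrombin at 0.02 NIH U/mL assay level in 0.05 M Tris-HCl pH 7.4, I = 0.15, with 1 g/L BSA. Ten inhibitor levels spanning 0.06 nM–133 µM, diluted from 0.1 mM DMSO stocks. Substrate pyroGlu-Pro-pNA (S-2366) at 0.3 mM assay level; A405 read after 40 min. IC50 taken from dose-response curves. Ki = IC50/(1+[S]/Km), Km 0.33 mM.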

[2] = molecular target: T1, Prothrombin; assay: as §1; remark: listed apart in the source

IC50 [1]	IC50 [2]	Compound
0.288 µM	–	CCc1cc(OCCc2ccc(C(=N)N)c(O)c2)cc(OS(=O)(=O)c2cc(Cl)cc(Cl)c2OC)c1
3.16 µM	–	CCc1cc(OCCc2ccc(CN)cc2)cc(OS(=O)(=O)c2cc(C)ccc2OC)c1
–	56.2 µM	COc1c(Cl)cc(Cl)cc1S(=O)(=O)Oc1cc(C)cc(OCCc2cccc(O)c2)c1
